According to patent US5348956A, “Substituted cyclopropylamino-1,3,5-triazines” (UCB S.A., priority 1991, dated 1994):

Assay: toxicity, Irwin's test
Assay type: in vivo
Conditions: i.p.; death of two animals out of three within 48 hours
Procedure: The toxicity of the compounds according to the invention has been determined on male NMRI mice by means of the Irwin's test (S. IRWIN, Psychopharmacologia, 13, (1968), 222-257). Progressive doses of the compound to be tested are administered intraperitoneally to groups of three mice until the lethal dose is reached (dose which causes the death of two animals out of three within 48 hours).

CNC(=O)Oc1ccc2c(c1)[C@]1(C)CCN(C)[C@@H]1N2C [physostigmine, reference compound]
Lethal dose: 0.82 mg/kg
